Sampled rows, rich in hits. Any-hit rate of the full collection: about 2.4%.
TDP1 inh: TDP1 (human) enzyme inhibition; Q9NUW8; recombinant TDP1, AlphaScreen DNA substrate cleavage; Potency, µM (highest dose often 130 µM), without a hit: at the highest dose activity change, negative = inhibition, hits mostly inhibitors; actives 0.28% (n = 350,000); AID 485290; active = well fitted curve in the direction sought with a large enough effect; inconclusive = small, poorly fitted or top-dose-only effect, or another doubt; inactive = no such curve, though single readings can be large; an effect the other way counts as inactive or inconclusive; note: % is set by controls: 0 for no effect and ±100 for the full control effect; nearly all actives have a fitted effect of over 40% in size
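E. coli-derived human Tdp1, 1 nM final. Cpd preinc 15 min RT; substrate 15 nM final, 5 min RT; AS bead mix 10 ug/ml final, 10 min RT. Signal loss = tyrosine-FITC cleavage. No-enzyme wells = max signal.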
Rango dissoc inh: inhibition of RanGTP-driven Rango-importin beta dissociation | O95149+P62826 | Biochemical FRET Rango-importin beta, RanGTP-induced dissociation | Potency, µM (titrated, usually from 46.1 µM), without a hit: at the highest dose activity change, negative = inhibition | actives 0.071% (n = 340,000) | AID 540253; note: % of control where 0% means no effect; nearly all actives have a fitted effect of over 45% in size
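Rango FRET biosensor (snurportin-1 IBB flanked by N-terminal EYFP and C-terminal CFP10) at 0.1 uM, with 0.25 uM importin beta in PBS, 1mM DTT, 0.02% Tween-20, 0.1% BSA. 0.6 uM Ran, 2mM GTP and 0.2 uM RCC1 were then added for 45 min at room temperature. Inhibition read as loss of FRET rise.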
PTAP TSG101 blk: blocks PTAP/TSG101 interaction to inhibit HIV-1 budding; Potency, µM (series often up to 115 µM), for inactives: at the top dose activity change, negative = inhibition, actives largely listed as inhibitors; Q99816; 340,000 tested, under 10 active; Fluorescence polarization, FITC-PTAP peptide / Tsg101 binding; active = well fitted inhibition curve with a large enough effect in the main read-out, with a control signal flat, not every such curve was filed as active; inconclusive = small, poorly fitted or top-dose-only effect, or effect the other way, or a change in a side signal; inactive = no such curve, though single readings can be large or run the other way; note: % of control where 0% means no effect
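Steps: Tsg101 binding domain dispensed (10 uM final), compounds pinned in DMSO, FITC-labeled PTAP-motif peptide added (50 nM final); after 20 min binding at room temperature, polarization measured.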
Rango-impB inh: inhibitors of Rango-importin beta complex formation; Q14974; Rango CFP/YFP FRET sensor + importin beta, 45 min; Potency, µM (highest dose often 92.2 µM), for the others: at the top dose inhibition of complex formation; actives 0.031% (n = 340,000); AID 540263;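 note: 0% = DMSO wells and 100% = buffer wells lacking importin beta; nearly all actives have a fitted effect of over 15% in size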
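FRET biosensor (snurportin 1 IBB flanked by EYFP and cerulean), 50 nM, with compound 5 min, then 0.125 microM importin beta in PBS, 1 mM DTT, 0.02% Tween-20, 0.1% BSA. CFP/YFP ratio read after 45 min at room temperature; pre-read flags interference.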
ClpP mod: qHTS Assay for Activators of ClpP | ATP-dependent Clp protease proteolytic subunit (Bacillus subtilis (strain 168)), P80244 | purified B. subtilis ClpP, FRET peptide cleavage, 20 min | Potency, µM (highest dose often 57.5 µM), inactives show at the top dose activity change, negative = active | actives 1.9% (n = 340,000) | AID 651965, 2013; active = well fitted falling curve with a large enough effect; inconclusive = small, poorly fitted or top-dose-only effect; inactive = no such curve, though single readings can be large or run the other way; note: the source files actives as falling curves though it sought activators and does not explain the sign; nearly all actives have a fitted effect of over 65% in size
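Buffer: 100 mM Tris/HCl pH8, 100 mM KCl, 0.05% low protease BSA, 2.5% glycerol, 0.01% Tween-20. ClpP 10 microg/mL final; 20 min RT; delta FRET normalized to ADEP and DMSO controls.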
ALOX12 inh: blocks human arachidonate 12S-lipoxygenase. purified 12hLO, xylenol orange hydroperoxide absorbance. Potency, µM (top dose mostly 108 µM), inactives show at the highest dose activity change, negative = inhibition, actives largely listed as inhibitors. actives 1.1% (n = 580,000); active = well fitted curve in the direction sought with a large enough effect; inconclusive = small, poorly fitted or top-dose-only effect, or another doubt; inactive = no such curve, though single readings can be large; an effect the other way counts as inactive or inconclusive; note: % is set by controls: 0 for no effect and ±100 for the full control effect
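Purified human 12hLO at 150 nM in 25 mM Hepes, 0.01% Triton X-100, pH 7.0, preincubated 15 min at room temperature with compound. Reaction started with 40 uM arachidonic acid, 30 min at room temperature. Hydroperoxide measured by Fe-xylenol orange, 573/405 nm absorbance ratio.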
Active calls of the source: *; ? = inconclusive; · = not tested or not shown; ! = not confirmed by another sample; [ ] = dose if it differs, or a comment. Unless noted, calls come from the whole dose curve. Potency is the fitted concentration of half-maximal effect.

Protein sequences, listed by entry. Tags and fused reporters are not part of them.
ATP-dependent Clp protease proteolytic subunit (Bacillus subtilis (strain 168)), P80244, UniProt P80244, whole entry, looked up: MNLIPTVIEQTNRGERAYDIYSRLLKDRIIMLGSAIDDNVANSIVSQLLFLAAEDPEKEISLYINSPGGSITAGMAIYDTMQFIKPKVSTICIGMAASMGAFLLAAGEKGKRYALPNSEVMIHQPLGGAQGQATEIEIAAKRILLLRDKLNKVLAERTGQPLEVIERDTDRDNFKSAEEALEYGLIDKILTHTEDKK

Abbreviations: A = TDP1 inh; B = Rango dissoc inh; C = PTAP TSG101 blk; D = Rango-impB inh; E = ClpP mod; F = ALOX12 inh
OCCCCCNc1ncnc2ccccc12
  A: -8%[56.1 µM] | B: -2% | C: -1% | D: -2% | E: -7% | F: 343%
COc1ccc(-c2c(C)oc3cc(OCC(=O)NCCC4=CCCCC4)ccc3c2=O)cc1
  A: · | B: · | C: · | D: · | E: · | F: -17%
Cc1ccc(C(=O)N2C[C@@H](CN3CCCN(C)CC3)[C@@H](CO)C2)nc1
  A: · | B: · | C: · | D: · | E: · | F: 26%
N#CCC(=O)Nc1ccc(C(=O)OCc2ccc(Cl)cc2)cc1
  A: · | B: · | C: · | D: · | E: · | F: -34%
O=C(N/N=C/c1ccoc1)c1cc(O)cc(O)c1
  A: 2.8µM* | B: 7% | C: 0% | D: -1% | E: -3% | F: 392%
Cc1cn2nc(C(=O)N3CCCC3)cc2c(N2CCSCC2)n1
  A: · | B: · | C: · | D: · | E: · | F: 3%
CCCCNC(=S)N/N=C/c1ccccc1F
  A: 5% | B: 0% | C: -4% | D: 4% | E: ? | F: ?
CCCCNC(=S)N/N=C/c1cc(C)ccc1C
  A: 1% | B: -9% | C: -2% | D: 0% | E: -2% | F: 50µM*
Cc1c(C(=O)NNC(=O)c2csc(N3CCOCC3)n2)oc2ccc(Br)cc12
  A: · | B: · | C: · | D: · | E: 0% | F: 40µM*
Cc1cc(Cn2cc3c4c(cccc42)[C@H](CC(C)C)N[C@H](C(=O)NCCN2CCCC2)C3)no1
  A: · | B: · | C: · | D: · | E: · | F: 62%

Whole records, looked up by structure. Screens in order: TDP1 inh, Rango dissoc inh, PTAP TSG101 blk, Rango-impB inh, ClpP mod, ALOX12 inh
Entry for `Cc1ccc(C(=O)N2C[C@@H](CN3CCCN(C)CC3)[C@@H](CO)C2)nc1` → ·, ·, ·, ·, ·, 26%
Entry for `CCCCNC(=S)N/N=C/c1cc(C)ccc1C` → 1%, -9%, -2%, 0%, -2%, 50µM*
Entry for `CCCCNC(=S)N/N=C/c1ccccc1F` → 5%, 0%, -4%, 4%, ?, ?

Remaining list, next part
Abbreviations: A = TDP1 inh; B = Rango dissoc inh; C = PTAP TSG101 blk; D = Rango-impB inh; E = ClpP mod; F = ALOX12 inh
Cc1ccc(S(=O)(=O)NNC(=O)c2csnn2)cc1
  A: 0% | B: ? | C: -8% | D: 52µM* | E: -2% | F: -20%
Cc1ccc(S(=O)(=O)NNC(=O)c2sccc2-n2cccc2)cc1
  A: -7% | B: 3% | C: -8% | D: -3% | E: 1% | F: 32µM*
O=C(NNS(=O)(=O)c1ccc(F)cc1)c1sccc1-n1cccc1
  A: 2% | B: -2% | C: -2% | D: -4% | E: · | F: -15%
CCn1c2ccccc2c2cc(CNCCc3c[nH]c4ccccc34)ccc21
  A: · | B: · | C: · | D: · | E: · | F: 40µM*
CCn1c2ccccc2c2cc(CNCC3CCNCC3)ccc21
  A: · | B: · | C: · | D: · | E: · | F: -23%
CC(C)n1nc(C(=O)Nc2cc(C(F)(F)F)ccc2N2CCOCC2)c2ccccc2c1=O
  A: · | B: · | C: · | D: · | E: · | F: -20%
CCSc1nnc(NC(=O)C2CCCCC2)s1
  A: 9% | B: 0% | C: -9% | D: -1% | E: 0% | F: 0%
CCSc1nnc(NC(=O)C2CC=CCC2C(=O)O)s1 (stereo not drawn)
  A: 56µM* | B: 2% | C: -1% | D: 2% | E: -2% | F: 142%
CCOC(=O)c1sc(NC(=O)C2CC=CCC2C(=O)O)nc1C (stereo not drawn)
  A: 22µM* | B: 2% | C: 3% | D: -3% | E: -1% | F: -29%
O=C(OCc1ccccc1)N1CCC2(C1)C(=NC1CCCC1)NC(=O)N2c1cccnc1 (stereo not drawn)
  A: · | B: · | C: · | D: · | E: · | F: 2%

New compounds follow.
Abbreviations: A = TDP1 inh; B = Rango dissoc inh; C = PTAP TSG101 blk; D = Rango-impB inh; E = ClpP mod; F = ALOX12 inh
C[C@@H]1CN(C(=O)CCc2cnccn2)C[C@@]1(O)C1CC1
  A: · | B: · | C: · | D: · | E: · | F: 43%
COCC(C)Nc1ncnc2c1cnn2-c1ccc(Cl)cc1 (stereo not drawn)
  A: 9% | B: 0% | C: -4% | D: 1% | E: 28µM* | F: 0%
COc1ccc(-n2ncc3c(NCC(C)C)ncnc32)cc1
  A: 0% | B: -13% | C: -1% | D: ? | E: 32µM* | F: 6.3µM*
CC(C)=CCC/C(C)=C/COc1c2occc2cc2ccc(=O)oc12
  A: 20µM*! | B: 8% | C: -7% | D: 0% | E: -2% | F: ?
FC(F)(F)c1ccccc1N/N=C1/CCc2ccccc21
  A: · | B: · | C: · | D: · | E: · | F: 10µM*
CC=Cc1cc2c(c(=O)o1)C(=O)C(O)C(C)O2 (stereo not drawn)
  A: · | B: 14% | C: -6% | D: -4% | E: 13µM* | F: -3%
CCn1c(=O)c2ccnn2c2ccc(C(=O)O)cc21
  A: · | B: · | C: · | D: · | E: · | F: 15%
C[n+]1cccc2cccc([O-])c21
  A: 40µM* | B: -8% | C: -4% | D: -3% | E: -3% | F: -22%
Cn1c(=O)c2c(nc(SCC(=O)Nc3ccc(F)cc3)n2C)n(C)c1=O
  A: · | B: · | C: · | D: · | E: · | F: 35%
O=C(Nc1ccccc1F)c1nn(Cc2ccccc2)c(=O)c2ccccc12
  A: · | B: · | C: · | D: · | E: · | F: 0%

(more compounds)
Abbreviations: A = TDP1 inh; B = Rango dissoc inh; C = PTAP TSG101 blk; D = Rango-impB inh; E = ClpP mod; F = ALOX12 inh
COc1ccc(-c2cc(-c3ccccc3)nc(N3CCCC3)n2)cc1OC
  A: -7% | B: -6% | C: -1% | D: ? | E: 25µM* | F: -20%
Cc1ccc(-c2cc(C(=O)O)c3sc(N4CCCCC4)nc3n2)cc1
  A: -3% | B: ? | C: 0% | D: ? | E: ? | F: -18%
COc1ccc(-c2cc(C(=O)O)c3sc(N4CCCCC4)nc3n2)cc1OC
  A: 6% | B: ? | C: -6% | D: ? | E: 10µM* | F: ?
CN1C[C@H](NCc2nccs2)CCC[C@@H](C(=O)N(C)Cc2cccnc2)CC1=O
  A: · | B: · | C: · | D: · | E: · | F: 34%[176 µM]
Cc1c(-c2cc(C(F)F)c3c(C4CC4)nn(C)c3n2)cnn1C
  A: · | B: · | C: · | D: · | E: · | F: 15%
CCOc1ccc(-c2cc3ccccc3[nH]2)cc1
  A: · | B: · | C: · | D: · | E: · | F: 13µM*
COc1ccc(-c2cc3ccccc3[nH]2)cc1
  A: 5% | B: 6% | C: -6% | D: -6% | E: · | F: ?
O=C(c1ccccc1)N1Cc2ccccc2CC2(CCCN2Cc2ccncc2)C1 (stereo not drawn)
  A: · | B: · | C: · | D: · | E: · | F: 2%[6.33 µM]
CCOc1ccc(NC(=O)CCNC(=O)Cn2ccc3ccccc3c2=O)cc1
  A: -3% | B: 8% | C: -5% | D: 0% | E: 32µM* | F: ·
CCOc1ccccc1NC(=O)CCNC(=O)Cn1ccc2ccccc2c1=O
  A: · | B: 3% | C: 1% | D: 0% | E: · | F: -6%

New compounds follow
Abbreviations: A = TDP1 inh; B = Rango dissoc inh; C = PTAP TSG101 blk; D = Rango-impB inh; E = ClpP mod; F = ALOX12 inh
O=C(OCc1nnc(-c2ccccc2)o1)c1ccc(-n2cnnn2)cc1
  A: 0% | B: 5% | C: -3% | D: -4% | E: · | F: -8%
O=C(COC(=O)c1cn(-c2ccccc2)nc1-c1ccccc1)Nc1ncc(Cl)cc1Cl
  A: · | B: -4% | C: -3% | D: ? | E: · | F: 25µM*
O=C(OCc1nnc(-c2ccccc2)o1)c1cn(-c2ccccc2)nc1-c1ccccc1
  A: 1% | B: -13% | C: -4% | D: -1% | E: 10µM* | F: -7%
O=C(COC(=O)CNC(=O)c1ccccc1F)Nc1ncc(Cl)cc1Cl
  A: -11% | B: ? | C: -8% | D: -1% | E: 1% | F: 40µM*
O=C(C1CC1)N1CCc2nn(Cc3ccccc3)c(=O)n2CC1
  A: · | B: · | C: · | D: · | E: · | F: 21%
COc1ccc(CN2CCOc3ccc(CN4CCCCC4CO)cc3C2)c(OC)c1 (stereo not drawn)
  A: · | B: · | C: · | D: · | E: · | F: -7%
COc1ccc(CN2CCOc3ccc(CN4CCC(O)CC4)cc3C2)c(OC)c1OC
  A: · | B: · | C: · | D: · | E: · | F: 3%
COc1cccc2c1Oc1ncccc1N(c1ccc(C(=O)NCc3cccc(C)c3)s1)C2
  A: -3% | B: · | C: · | D: · | E: 32µM* | F: -3%
C/C(=N/Nc1ccc([N+](=O)[O-])cc1)c1ccncc1
  A: · | B: · | C: · | D: · | E: · | F: 35µM*
C/C(=N\Nc1cccc(Cl)c1)c1ccncc1
  A: 8% | B: 24% | C: 1% | D: 0% | E: -1% | F: 18µM*
Cc1cccc(NC(=S)NNC(=O)c2cccc([N+](=O)[O-])c2)c1
  A: 10% | B: -6% | C: -4% | D: 8% | E: · | F: 303%
C/C(=N\Nc1ccc(Cl)cc1)c1ccncc1
  A: · | B: -3% | C: 1% | D: 0% | E: 0% | F: ?
C/C(=N/NC(=S)Nc1cccc(C)c1)c1cccc([N+](=O)[O-])c1
  A: 8% | B: -9% | C: -3% | D: 1% | E: 1% | F: 40µM*

Screening results as filed in PubChem BioAssay.
